Test results published in ChEMBL document CHEMBL4602657, “Design and evaluation of Nrf2 activators with 1,3,4-oxa/thiadiazole core as neuro-protective agents against oxidative stress in PC-12 cells” (Bioorg Med Chem Lett, 2020).

Key:
Assay type in all cases: cell-based
[1] = target: T1, Nuclear factor erythroid 2-related factor 2 (Homo sapiens) (UniProt Q16236); assay: Activation of Nrf2 in human HepG2-ARE-C8 cells assessed as fold change at 20 uM measured after 12 hrs by luciferase reporter gene assay relative to control
T1 sequence (whole entry): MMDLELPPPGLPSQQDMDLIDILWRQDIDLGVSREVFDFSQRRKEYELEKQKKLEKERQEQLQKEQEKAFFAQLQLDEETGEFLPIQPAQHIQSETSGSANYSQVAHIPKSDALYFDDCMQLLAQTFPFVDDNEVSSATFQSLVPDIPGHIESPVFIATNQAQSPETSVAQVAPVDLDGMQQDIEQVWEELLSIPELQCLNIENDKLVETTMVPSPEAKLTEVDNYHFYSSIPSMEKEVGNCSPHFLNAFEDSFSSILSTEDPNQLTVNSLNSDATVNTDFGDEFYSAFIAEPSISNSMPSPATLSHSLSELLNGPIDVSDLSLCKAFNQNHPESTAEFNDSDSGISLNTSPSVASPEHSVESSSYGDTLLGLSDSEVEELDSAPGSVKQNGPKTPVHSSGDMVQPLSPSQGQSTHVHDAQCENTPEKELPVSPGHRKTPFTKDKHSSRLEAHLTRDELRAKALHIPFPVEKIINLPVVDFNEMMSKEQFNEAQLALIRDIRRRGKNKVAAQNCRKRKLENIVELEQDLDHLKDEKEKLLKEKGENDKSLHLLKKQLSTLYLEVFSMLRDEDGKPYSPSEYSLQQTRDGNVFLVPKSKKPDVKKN

[2] = target: T1, Nuclear factor erythroid 2-related factor 2 (Homo sapiens); assay: Activation of Nrf2 in human HepG2-ARE-C8 cells assessed as fold change at 10 uM measured after 12 hrs by luciferase reporter gene assay relative to control
[3] = target: T1, Nuclear factor erythroid 2-related factor 2 (Homo sapiens); assay: Activation of Nrf2 in human HepG2-ARE-C8 cells assessed as fold change at 0.1 uM measured after 12 hrs by luciferase reporter gene assay relative to control
[4] = target: T1, Nuclear factor erythroid 2-related factor 2 (Homo sapiens); assay: Activation of Nrf2 in human HepG2-ARE-C8 cells assessed as fold change at 40 uM measured after 12 hrs by luciferase reporter gene assay relative to control
[5] = target: T1, Nuclear factor erythroid 2-related factor 2 (Homo sapiens); assay: Activation of Nrf2 in human HepG2-ARE-C8 cells assessed as fold change at 1 uM measured after 12 hrs by luciferase reporter gene assay relative to control
[6] = target: T1, Nuclear factor erythroid 2-related factor 2 (Homo sapiens); assay: Activation of Nrf2 in human HepG2-ARE-C8 cells assessed as fold change at 80 uM measured after 12 hrs by luciferase reporter gene assay relative to control

`Fc1ccc(-c2nc(-c3ccc4nc[nH]c4c3)no2)cc1` showed a fold change (FC) [1] of 27.3, a fold change (FC) [2] of 14.2 and a fold change (FC) [3] of 2.49. The fold change (FC) [4] was 40.8, the fold change (FC) [5] was 10.2 and the fold change (FC) [6] was 44.4.
